The test system of this series is over 50 human tumour cell lines. The settings on record: 48-h, mean over more than 50 human tumour cell lines.

“[tris(1,10-phenantrolin)lanthanum(III)]trithiocyanate”: the “Mean LC50” value worked out at 46.9 µg/mL. The CC50 (read-out: Mean LC50) worked out at 55 µM.
